# Results: PubChem BioAssay AID651823 (Broad Institute, 2012)
# Protein sequences, listed by entry. Tags and fused reporters are not part of them.
# UniProt Q14145, whole entry: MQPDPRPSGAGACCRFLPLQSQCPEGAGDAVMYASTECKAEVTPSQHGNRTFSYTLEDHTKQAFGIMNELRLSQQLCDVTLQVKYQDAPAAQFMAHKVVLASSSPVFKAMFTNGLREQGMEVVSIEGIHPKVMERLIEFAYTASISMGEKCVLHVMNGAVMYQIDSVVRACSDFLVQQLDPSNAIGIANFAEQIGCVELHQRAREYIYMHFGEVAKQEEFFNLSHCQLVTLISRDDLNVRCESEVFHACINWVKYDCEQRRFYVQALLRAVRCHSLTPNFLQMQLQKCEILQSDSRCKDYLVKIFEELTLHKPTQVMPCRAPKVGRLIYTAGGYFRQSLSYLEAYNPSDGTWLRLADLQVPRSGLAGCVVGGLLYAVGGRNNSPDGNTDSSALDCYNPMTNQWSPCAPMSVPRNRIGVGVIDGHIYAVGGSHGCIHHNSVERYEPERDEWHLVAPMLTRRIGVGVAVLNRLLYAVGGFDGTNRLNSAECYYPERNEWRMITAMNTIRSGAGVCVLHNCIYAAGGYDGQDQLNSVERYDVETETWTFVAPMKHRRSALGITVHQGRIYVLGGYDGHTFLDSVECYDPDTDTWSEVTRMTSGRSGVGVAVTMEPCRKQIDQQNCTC
# Only a part is listed here, and it is no random draw. Calls of active or inactive are those of the source. No stated cut-off is given here; in the data, active means max delta Tm above about 0.48 degrees C; inactive means the rest.
# Molecular target: Kelch-like ECH-associated protein 1 (Homo sapiens) (UniProt Q14145)
# Experiment: Tm shift of Keap1 Kelch upon compound binding – biophysical, thermal shift, RT-PCR instrument, cherry-pick, dose response (AID 651823)
# Conditions: at 50 µM, active compounds read high
structure (smiles),measurement,value
CCCN1CCC(Nc2cc(OC)cc(OC)c2)CC1,max delta Tm,inactive: -0.03 °C
